Measured values published in patent US20240199677A1, “GLYCOSYLTRANSFERASE INHIBITORS” (CALIFORNIA INSTITUTE OF TECHNOLOGY, priority 2018, published 2024).

By UniProt entry, the sequences of proteins in these tests, tags left out. Where a name states a change or a piece, a line headed by the entry shows the natural chain unless it says otherwise.
UniProt A0R211: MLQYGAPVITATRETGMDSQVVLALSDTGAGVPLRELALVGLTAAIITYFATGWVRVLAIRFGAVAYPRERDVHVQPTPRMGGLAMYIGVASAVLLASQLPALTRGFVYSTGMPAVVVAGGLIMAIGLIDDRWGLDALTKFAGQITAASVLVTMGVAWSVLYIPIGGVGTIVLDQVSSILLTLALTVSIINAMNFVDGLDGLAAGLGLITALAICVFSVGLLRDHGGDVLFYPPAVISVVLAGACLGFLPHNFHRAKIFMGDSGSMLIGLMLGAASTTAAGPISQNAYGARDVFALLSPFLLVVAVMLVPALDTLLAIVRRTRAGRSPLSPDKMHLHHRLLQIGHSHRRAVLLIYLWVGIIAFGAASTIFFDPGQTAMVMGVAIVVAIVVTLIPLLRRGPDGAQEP

Target: M. smegmatis WecA (Mycolicibacterium smegmatis (strain ATCC 700084 / mc(2)155) (Mycobacterium smegmatis), UniProt A0R211)
Assay: biochemical

NC[C@H]1O[C@@H](O[C@H]([C@H]2O[C@@H](n3ccc(=O)[nH]c3=O)[C@H](O)[C@@H]2O)[C@H](NCCCC(=O)NCc2ccc(N3CCC(Oc4ccc(C(F)(F)F)cc4)CC3)cc2)C(N)=O)[C@H](O)[C@@H]1O [Compound 11]
IC50: 250 nM
